Laboratory results: US5948780A, “Method for treating and preventing heart failure and ventricular dilatation” (priority 1997, dated 1999)

What follows are molecules tested against T1, MMP-2 (Gelatinase A) (Homo sapiens, UniProt P08253). Details: read-out: IC50 MMP2.
T1 sequence (P08253 110-660): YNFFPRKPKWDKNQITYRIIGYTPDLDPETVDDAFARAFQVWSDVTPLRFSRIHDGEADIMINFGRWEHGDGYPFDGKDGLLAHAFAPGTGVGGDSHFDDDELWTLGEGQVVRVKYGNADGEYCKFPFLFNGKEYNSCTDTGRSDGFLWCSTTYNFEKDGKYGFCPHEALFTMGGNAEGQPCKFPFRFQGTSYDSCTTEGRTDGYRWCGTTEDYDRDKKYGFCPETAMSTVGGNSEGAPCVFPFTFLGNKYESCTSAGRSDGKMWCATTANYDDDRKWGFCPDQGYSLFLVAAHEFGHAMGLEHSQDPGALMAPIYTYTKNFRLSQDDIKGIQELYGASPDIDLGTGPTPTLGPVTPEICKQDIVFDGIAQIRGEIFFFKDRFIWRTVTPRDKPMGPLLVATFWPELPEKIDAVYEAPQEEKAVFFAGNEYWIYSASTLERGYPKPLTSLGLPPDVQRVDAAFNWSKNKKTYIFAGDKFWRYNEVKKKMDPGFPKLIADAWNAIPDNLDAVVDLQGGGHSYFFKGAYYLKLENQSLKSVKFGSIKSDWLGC
Type: biochemical

Point of comparison: CC(C)[C@H](NS(=O)(=O)c1ccc(-c2ccc([N+](=O)[O-])cc2)cc1)C(=O)O [(S)-3-Methyl-2-(4'-nitro-biphenyl-4-sulfonylamino)-butyric acid], IC50 13 nM. Against it:
- CC(C)[C@H](NS(=O)(=O)c1ccc(-c2ccc(N)cc2)cc1)C(=O)O [(S)-2-(4'-Amino-biphenyl-4-sulfonylamino)-3-methyl-butyric acid] — 3.4-fold higher, 44 nM
- CC(C)[C@H](NS(=O)(=O)c1ccc(-c2ccc(Br)cc2)cc1)C(=O)O [(S)-2-(4'-Bromo-biphenyl-4-sulfonylamino)-3-methyl-butyric acid] — 1.9-fold higher, 25 nM
